Like-named read-outs stand apart in the source and are kept apart here.

The assay has as its system μ receptor. The assay is described as follows: Saturation binding of [3H]DAGO to whole brain membrane proteins (Scatchard).

For D-Ala^2MePhe^4Gly-ol^5 enkephalin, the Kd (commonly the equilibrium constant for the complex coming apart) ([3H]DAGO, μ receptor gene line, heterozygous +/−) was determined as 1.13 nM; the Kd result ([3H]DAGO, μ receptor gene line, homozygous −/−) is given as “und”; the Kd ([3H]DAGO, μ receptor gene line, wild +/+) was 1.34 nM; the Kd (read-out: DAGO Kd, kappa receptor gene line, heterozygous +/−) came out at 1.36 nM; the dissociation constant (Kd) (read-out: DAGO Kd, kappa receptor gene line, homozygous −/−) stood at 1.39 nM; the Kd (read-out: DAGO Kd, kappa receptor gene line, wild +/+) was 1.26 nM.
